The text below walks through data of ChEMBL document CHEMBL1121754 (J Med Chem, 1981).

Chains of the proteins cited; added tags and fusions are not shown.
UniProt P30994, whole entry: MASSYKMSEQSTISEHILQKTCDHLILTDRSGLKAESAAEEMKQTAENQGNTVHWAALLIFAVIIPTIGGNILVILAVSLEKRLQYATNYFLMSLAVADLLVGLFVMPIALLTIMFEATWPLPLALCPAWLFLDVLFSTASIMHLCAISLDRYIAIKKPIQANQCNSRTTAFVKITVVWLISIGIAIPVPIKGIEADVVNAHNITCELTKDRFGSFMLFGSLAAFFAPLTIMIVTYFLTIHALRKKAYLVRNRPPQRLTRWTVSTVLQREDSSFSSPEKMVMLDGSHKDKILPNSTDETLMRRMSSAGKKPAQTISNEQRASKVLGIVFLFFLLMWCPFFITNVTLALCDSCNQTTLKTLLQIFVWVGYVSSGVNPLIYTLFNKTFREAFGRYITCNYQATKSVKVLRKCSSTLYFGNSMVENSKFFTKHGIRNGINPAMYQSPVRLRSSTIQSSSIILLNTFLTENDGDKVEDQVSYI

A short description of assay [1]: Equilibrium constant for DNB complex formation. More on the design: unit not given here.
Assay [2] deals with 5-hydroxytryptamine receptor 2B (Rattus norvegicus, UniProt P30994). Description: Affinity against 5-hydroxytryptamine 2B receptor in the isolated rat stomach fundus. To be noted: read-out: pA2 (converted). Format: tissue-based.

The molecule `COc1ccccc1CC(C)N` (stereo not given) returned a KDNB in assay [1] of 0.83. Besides, in assay [2], the Kb is 2880 nM.

For `COc1cccc(CC(C)N)c1OC` (stereo not given), the Kb in assay [2] was 2880 nM.

In assay [1], `COc1ccc(OC)c(CC(C)N)c1` (stereo not given) yielded a KDNB of 1.39. In assay [2], the Kb was 148 nM.
